The text below walks through data of patent US20240115729A1, “COMPOSITIONS AND METHODS FOR TARGETED ANTIFIBROTIC THERAPY IN CHRONIC PANCREATITIS” (University of Virginia Patent Foundation, priority 2021, published 2024).

The target of the assay is α-smooth muscle actin (α-SMA) (mouse) (UniProt P62737). The assay can be described thus: IF colocalization (JACoP) of VT680 phage with marker, CP mouse pancreas sections.
With “KTYVPTT (SEQ ID NO: 14) phage clone (peptide)”, the mean Manders' correlation coefficient (MCC), fraction of phage overlapping cell marker stood at 0.52.
As for “SLPLGPM (SEQ ID NO: 26) phage clone (peptide)”, the mean Manders' correlation coefficient (MCC), fraction of phage overlapping cell marker worked out at 0.15.
As for “HPYSPLR (SEQ ID NO: 11) phage clone (peptide)”, the mean Manders' correlation coefficient (MCC), fraction of phage overlapping cell marker stood at 0.13.
The substance “MDLSLKP (SEQ ID NO: 19) phage clone (peptide)” returned a mean Manders' correlation coefficient (MCC), fraction of phage overlapping cell marker of 0.16.
The figure for “SNSQDLH (SEQ ID NO: 28) phage clone (peptide)” is 0.05.
For “MNSIAIP (SEQ ID NO: 20) phage clone (peptide)”, the mean Manders' correlation coefficient (MCC), fraction of phage overlapping cell marker came to 0.07.
